Columns and labels:
Homo sapiens [1] = species: Homo sapiens; assay: Selectivity ratio of Ki for human delta opioid receptor to Ki for human kappa opioid receptor
Homo sapiens [2] = species: Homo sapiens; assay: Selectivity ratio of Ki for human mu opioid receptor to Ki for human kappa opioid receptor
Mu-type opioid receptor = Mu-type opioid receptor (Homo sapiens, UniProt P35372); assay: Agonist activity at human mu opioid receptor expressed in CHO cells assessed as [35S]GTPgammaS binding by scintillation counting relative to control; assay type: functional, cell-based
Summary of the method: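 Membranes from CHO cells stably expressing human κ (15 μg protein/tube) or μ (7.5 μg protein/tube) opioid receptor, grown in DMEM with 10% FBS at 37 °C, 5% CO2. Twelve agonist concentrations were incubated 60 min at 30 °C in 50 mM Tris-HCl, 3 mM MgCl2, 100 mM NaCl, 0.2 mM EGTA, pH 7.4, with 3 μM GDP and [35S]GTPγS. Filtration, then scintillation counting. Stimulation expressed as percent over basal; ≥3 experiments in triplicate.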

Amino acid sequences for entries named in this document (tags omitted).
UniProt P35372, whole entry: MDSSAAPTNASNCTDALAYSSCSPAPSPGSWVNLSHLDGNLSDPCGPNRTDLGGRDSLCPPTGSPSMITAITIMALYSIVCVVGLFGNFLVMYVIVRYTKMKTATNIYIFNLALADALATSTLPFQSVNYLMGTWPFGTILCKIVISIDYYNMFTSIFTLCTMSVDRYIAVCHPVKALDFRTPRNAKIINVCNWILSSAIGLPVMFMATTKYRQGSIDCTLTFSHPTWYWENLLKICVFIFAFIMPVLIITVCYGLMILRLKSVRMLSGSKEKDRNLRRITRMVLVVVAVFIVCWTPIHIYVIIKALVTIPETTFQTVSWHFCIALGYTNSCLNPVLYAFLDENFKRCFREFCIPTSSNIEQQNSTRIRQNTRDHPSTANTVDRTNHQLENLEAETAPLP

Structure (SMILES)	Ratio Ki (Homo sapiens [1])	Ratio Ki (Homo sapiens [2])	Emax (Mu-type opioid receptor) [%]
CNc1nc2cc3c(cc2s1)C[C@@H]1[C@@H]2CCCC[C@]32CCN1CC1CC1	380	45	40
CCNc1nc2cc3c(cc2s1)C[C@@H]1[C@@H]2CCCC[C@]32CCN1CC1CC1	280	31	100
CNc1nc2cc3c(cc2s1)C[C@@H]1[C@@H]2CCCC[C@]32CCN1CCCF	70	10	83
CCNc1nc2cc3c(cc2s1)C[C@@H]1[C@@H]2CCCC[C@]32CCN1CCCF	81	4	97

— ChEMBL document CHEMBL1765082, “Aminothiazolomorphinans with mixed κ and μ opioid activity” (J Med Chem, 2011)
